In the data set the test system is T cells. Particulars: tested up to a concentration of 50 mM.

Structures are written as SMILES.

Consider `O=C(O)CCCC[C@@H]1SC[C@@H]2NC(=O)N[C@@H]21` [biotin], for which the “toxicity or changes of T cell function” value was “non-toxic for T cells and does not alter T cell function”.
